Values quoted from earlier work, collected in patent publication US20160304912A1, “A PROCESS FOR PREPARING SUCCINATE ESTER” (MYRIANT CORPORATION, priority 2013, published 2016).

Details: at 25 C

Substance: ammonium dihydrogen phosphate [ADP]
- solubility in water: ~55%
